Molecular target: human carbonic anhydrase II (HCAII)-pea Rubisco LSMT conjugate (glutaraldehyde cross-linked) (UniProt Q43088)

## des(methyl) spinach Rubisco (ribulose-1,5-bisphosphate carboxylase-oxygenase holoenzyme)
  Km (CO2) of Rubisco carboxylation: decrease in the Km (CO2) from 13.4 µM to 3.44 µM

Source: patent US20090070901
